Consider five compounds from patent publication US20240293418A1, “COMBINATION THERAPY FOR TREATING CANCER” (Epizyme, Inc., priority 2016, published 2024).

Assay [1] relates to L-363. The assay can be described thus: 7 day pretreatment + 4-day co-treatment combination model (Cell Titer Glo). The following applies: second agent + tazemetostat, L-363 t(20;22).
For assay [2], the system named is LP-1. The assay is described as above. The following applies: second agent + tazemetostat, LP-1 t(4;14).
In assay [3] the test system is U266. The assay is described as above. The settings on record: second agent + tazemetostat, U266 t(11;14).
For assay [4], the system named is LP-1. The assay can be described thus: 7-day co-treatment combination model (Cell Titer Glo). The following applies: second agent + tazemetostat, LP-1 t(4;14). (In general: ATP-based viability assays read luminescence as a measure of living cells.)
Assay [5] deals with MM1.S. The description is as above. The settings on record: second agent + tazemetostat.
Assay [6] concerns KMS-28-BM. The assay can be described thus: 7 day pretreatment + 4-day co-treatment combination model (Cell Titer Glo). The settings on record: second agent + tazemetostat, KMS-28-BM t(4;14).

The structures appear in SMILES notation.

On to `Cn1c(CCCC(=O)O)nc2cc(N(CCCl)CCCl)ccc21` [Bendamustine, bendamustine], for which the “combinatorial effect by Loewe volumes” value in assay [1] and in assay [2] was “A (Additive)” in each case.
Consider `CC(C)C[C@H](NC(=O)[C@H](Cc1ccccc1)NC(=O)c1cnccn1)B(O)O` [Bortezomib, bortezomib], for which the “combinatorial effect by Loewe volumes” value is reported as “S (Synergy)” in assay [3], “S (Synergy)” in assay [2] and “A (Additive)” in assay [4]. Further, in assay [5], the Loewe volume was 0.508.
As to `N[C@@H](Cc1ccc(N(CCCl)CCCl)cc1)C(=O)O` [Melphalan, melphalan], the “combinatorial effect by Loewe volumes” value in assay [1] is recorded as “A (Additive)”; in assay [6], “S (Synergy)”.
`O=C1CCC(N2C(=O)c3ccccc3C2=O)C(=O)N1` (stereo not shown) [Thalidomide, thalidomide]: in assay [2], the “combinatorial effect by Loewe volumes” value is on record as “A (Additive)”.
Consider `CC[C@]1(O)C[C@H]2CN(CCc3c([nH]c4ccccc34)[C@@](C(=O)OC)(c3cc4c(cc3OC)N(C=O)[C@H]3[C@@](O)(C(=O)OC)[C@H](OC(C)=O)[C@]5(CC)C=CCN6CC[C@]43[C@@H]65)C2)C1` [Vincristine, vincristine], for which, in assay [6], the “combinatorial effect by Loewe volumes” value is reported as “A (Additive)”.
